Results as given in patent publication US20250090514A1, “METHOD OF TREATING CANCER” (Laekna Limited, priority 2019, published 2025).

Tested on: MDX191210 tumor cells (abiraterone resistant prostate carcinoma)

SMILES: Cn1ncc(Cl)c1-c1cc(C(=O)N[C@H](CN)Cc2cccc(F)c2)sc1Cl [afuresertib, N-{(1S)-2-amino-1-[(3-fluorophenyl)methyl]ethyl}-5-chloro-4-(4-chloro-1-methyl-1H-pyrazol-5-yl)-2-thiophenecarboxamide]
- Cell Viability (CTG Units) (Mean ± SEM)/Day 0 (second column; CTG values at the termination) (MDX191210 MiniPDX, afuresertib 75 mg/kg p.o. QD x 7, CFG920 300 mg/kg p.o. BID, at termination): 24516±2133 CTG Units
- Relative Proliferation (%) (MDX191210 MiniPDX, afuresertib 75 mg/kg p.o. QD x 7, CFG920 300 mg/kg p.o. BID, relative to vehicle): 53.37%
- antitumor activity in MDX191210 MiniPDX model (afuresertib 75 mg/kg, CFG920 300 mg/kg, P<0.01 vs vehicle): significant antitumor activity
